Target: T1, recombinant eNOS (Bos taurus, UniProt P29473)
T1 construct: purchased Sigma Chemicals (St. Louis, MO)
Assay: NOS activity assay, conversion of L-[14C(U)]-arginine to L-[14C(U)]-citrulline, eNOS
Type: biochemical, bovine
Conditions: 50 µM L-arginine, 30 min at 37°C, pH 7.4; means ± SD (n = 4)
Text: L-Arginine, ADMA, N^G-hydroxy-L-arginine (NOHA), nicotinamide adenine dinucleotide phosphate reduced form (NADPH), flavin adenine dinucleotide (FAD), flavin mononucleotide (FMN), (6R)-5,6,7,8-tetrahydrobiopterin (BH4), recombinant eNOS (from bovine), iNOS (from mouse macrophage), Dowex® AG50W-X8 cation-exchange resin (mesh size, 100–200) were all purchased from Sigma Chemicals (St. Louis, MO). Ultima Gold XR scintillation liquid was from PerkinElmer (Shelton, CA). Recombinant nNOS (from rat) and N^G-hydroxy-nor-arginine (nor-NOHA) were obtained from Cayman Chemicals. Arginase (from bovine liver) was from Alexis Biochemicals (Lausen, Switzerland). […] All other chemicals were obtained from Wako Pure Chemical Industries, Osaka, Japan.
The NOS activities were determined by monitoring the conversion of L-[^14C(U)]-arginine (Moravek, Brea, CA) to L-[^14C(U)]-citrulline as previously described. […] L-[^14C(U)]-Citrulline was eluted twice with 1 ml of distilled water, and the eluted fractions mixed with 10 ml of cocktail (Ultima Gold XR) were quantified using a liquid scintillation counter. […]

IC50: 5 ± 1 µM
Structure (SMILES): CNC(=N)NCCC[C@H](N)C(=O)O [L-NMMA, N^G-monomethyl-L-arginine, reference compound]
